Data on two compounds can be found in US4959361A, “Triazolo(4,3-A)(1,4)benzodiazepines and thieno (3,2-F)(1,2,4)triazolo(4,3-A)(1,4)diazepine compounds which have useful activity as platelet activating factor (PAF) antagonists” (Hoffmann-La Roche Inc., priority 1988, dated 1990).

Protein sequences, listed by entry. Tags and fused reporters are not part of them. Residues count along the entry.
UniProt A0A8I3NSH0, 1-343: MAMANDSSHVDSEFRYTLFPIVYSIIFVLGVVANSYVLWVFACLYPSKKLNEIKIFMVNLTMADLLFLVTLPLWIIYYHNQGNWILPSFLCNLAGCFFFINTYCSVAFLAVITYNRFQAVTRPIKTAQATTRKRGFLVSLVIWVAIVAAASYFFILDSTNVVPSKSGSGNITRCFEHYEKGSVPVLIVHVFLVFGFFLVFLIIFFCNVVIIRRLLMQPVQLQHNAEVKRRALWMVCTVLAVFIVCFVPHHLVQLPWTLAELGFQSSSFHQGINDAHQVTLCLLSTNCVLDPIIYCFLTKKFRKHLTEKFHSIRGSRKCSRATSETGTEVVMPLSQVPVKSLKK

The test system of experiment [1] is PAF Induced Bronchoconstriction. Put plainly: PAF induced bronchoconstriction assay, intravenous testing. The settings on record: 1 minute pretreatment, PAF 1 μg/kg i.v. As for the experimental part:
Male animals (Hartlet Strain, 400-500 g were anesthetized with urethane (2 g/kg, i.p.). Each animals' trachea was cannulated and the guinea pigs were respirated using a Harvard small animal rodent respirator (3.0 cc stroke volume, 40 breaths per min.). Tracheal pressure was recorded from a cannula inserted in the trachea and connected to a Statham pressure transducer.
The jugular vein was cannulated for administering compounds. Spontaneous breathing was arrested with succinylcholine (1.2 mg/kg, i.v.) administered 2 minutes prior to intravenous injection of platelet activating factor PAF).
For the intravenous testing, the guinea pig is given a 1-minute pretreatment with propranolol at a dose of 0.1 mg/kg intravenously. The test compound is administered with a 1 minute pretreatment prior to intravenous challenge with PAF. The animal is then challenged with a 1 μg/kg intravenous dose of PAF and the change in tracheal pressure is measured.
The change in tracheal pressure is determined by subtracting the steady state baseline achieved after administration of succinylcholine from the peak broncho. constriction seen after challenge with PAF. The mean is calculated for each test compound and compared to the mean of the control animals to give the percent inhibition of bronchoconstriction. The standard error is calculated as the standard error of the mean.

Experiment [2] has the same test system. The experiment is described as follows: PAF induced bronchoconstriction assay, oral testing. The settings on record: Table I.
The target of experiment [3] is PAF-binding, dog platelets (Canis lupus familiaris, UniProt A0A8I3NSH0). The experiment is described as follows: PAF binding assay (radiolabelled H-PAF, washed dog platelets). The settings on record: read-out: PAF-binding IC-50, Table II, triazolobenzodiazepines, 10 minutes at room temperature. As for the experimental part: The binding assay was done in […] polyethylene microcentrifuge tubes (Beckman) containing 50 μl of an oil mixture of 2 parts Siliconol AR200 (Serva): 1 part Silicone Fluid (Arthur H. Thoma). Buffer, standards, or analogs (150 μl total volume) were added to the tubes. Radiolabelled H-PAF (50 μl) was then added to the tubes. The reaction was started by the addition of 50 μl of dog platelets (2×10^7 platelets). The tubes were capped, inverted several times to mix, and incubated for 10 minutes at room temperature. The platelets were separated from the incubation mixture by centrifuging 1 minute in a Beckman Microfuge B centrifuge. The tip of the microfuge tube was cut off, and the platelets were washed out of the tip with 200 μl of 50% methanol (Burdick and Jackson). Aquasol (NEN, 10 ml) was added and the radioactivity in the samples was determined using an LS 8100 Beckman liquid scintillation counter linked to a Techtran tape recorder Data was processed through an in-house computer system. Alternatively, radioactivity was determined using a Searle Mark III liquid scintillation counter linked to a Iso-Data microprocessor.
(b) preparation of platelets
Blood was collected from anesthesized or unanesthesized dogs into 50 ml plastic centrifuge tubes containing 3.8% sodium citrate as the anticoagulant (1 volume of citrate/9 volumes of blood). […] An aliquot of the washed platelets was counted. […]

As for `Cc1nnc2n1-c1sc(C#CCN3C(=O)COc4ccccc43)cc1C(c1ccccc1Cl)=NC2`, the “Bronchoconstriction ID-50 i.v.” value in experiment [1] (Table I) worked out at 0.007 mg/kg. The “Bronchoconstriction ID-50 p.o. 2 hr” value in experiment [2] is 0.076 mg/kg.
For `COc1c(C)c(C)c2c(c1C)CCC(C)(C#Cc1ccc3c(c1)C(c1ccccc1F)=NCc1nnc(C)n1-3)O2` (stereo not shown), the IC50 in experiment [3] turned out to be 70 nM. Besides, in experiment [1] (Table II), the “Bronchoconstriction ID-50 i.v.” value was determined as 0.03 mg/kg.
